Experiments:
CD4+CD25− T cells = experiment: Treg assay of antigen-specific CD4+CD25+ T cell lines; assay type: cell-based, human; settings: added to the Treg assay
Procedure: (§1) Treg assay: CD4+CD25+ and CD4+CD25− T cells were separated from 100 ml blood and each subpopulation was stimulated with anti-CD3+ anti-CD28 mAbs alone or in mixed cultures containing a fixed number (10,000) of CD4+CD25− responder cells and varying numbers of CD4+CD25+ T cells to give 0%, 20%, 33%, 50%, 67% and 100% in triplicate cultures (see FIG. 5). After 3 days, the cells were harvested and assessed for proliferation and cytokine production (IFN-γ and IL-10) in culture supernatants by ELISA. […]
A standard procedure was recently developed for assessing inhibitory activity of CD4+CD25+ Treg cells in vitro. […] These cell populations are cultured alone or are mixed at varying ratios using a constant number of CD4+CD25− responder T cells, and stimulated with plate-bound anti-CD3+anti-CD28 mAbs for 3 days, and are then assessed for proliferation responses using ^3H-Tdy uptake. […]
Suppression assays were performed in 96-well round bottom plates (Becton Dickinson, Franklin Lakes, N.J.) in a final volume of 200 μl/well of 1% type AB human Serum complete media (Biowhittaker, Walkersville, Md.). […] The cells were then harvested on glass fiber filters and assessed for uptake of the labeled thymidine by liquid scintillation. […]
The percent suppression was plotted versus increasing percentage of suppressor:indicator cells and a regression line was calculated. […]

[1] = system: CD4+CD25− indicator cells; experiment: Treg activity of CD4+CD25+ T cells from PBMC of treated MS patients; assay type: in vivo, human; settings: 1:2 ratio indicator:suppressor cells, FIG. 9
Procedure: as §1
Suppression assays were performed in 96-well round bottom plates (Becton Dickinson, Franklin Lakes, N.J.) in a final volume of 200 μl/well of 1% type AB human Serum complete media (Biowhittaker, Walkersville, Md.). […] The cells were then harvested on glass fiber filters and assessed for uptake of the labeled thymidine by liquid scintillation. Percent suppression was determined at each mixed cell ratio compared to responses of CD4+CD25+ (suppressor cells) and CD4+CD25− T cells (indicator T cells) alone as follows: Mean cpm (indicator cells)−mean cpm (mixed cell culture) mean cpm (indicator cells)−mean cpm (suppressor cells)
The percent suppression was plotted versus increasing percentage of suppressor:indicator cells and a regression line was calculated. I50 values were determined as the ratio of suppressor:indicator cells that produced 50% suppression. […]

Molecule	reversal of Treg activity of TCR-reactive T cell lines by addition (CD4+CD25− T cells)	suppressive Treg activity of CD4+CD25+ T cells from treated MS patients [1]
IL-2: interleukin-2 added to the Treg assay	reversed completely	
Avonex: IFN-β-1a, standard MS therapy (protein, UniProt P01574 22-187, looked up) Interferon beta: MSYNLLGFLQRSSNFQCQKLLWQLNGRLEYCLKDRMNFDIPEEIKQLQQFQKEDAALTIYEMLQNIFAIFRQDSSSTGWNETIVENLLANVYHQINHLKTVLEEKLEKEDFTRGKLMSSLHLKRYYGRILHYLKAKEYSHCAWTIVRVEILRNFYFINRLTGYLRN		moderately suppressive
